Laboratory results from PubChem BioAssay AID1645883 (National Center for Advancing Translational Sciences (NCATS), 2021).
“And” between values parts separate entries of the source, which are not always exact repeats. Equal entries are not always repeated. This is a selection; strong and weak results do not stand in their true shares. Results filed as inconclusive are left out. The source made the active and inactive calls. The call rests on the fitted dose curve; in most records, active means well fitted activation curve with a large enough effect; inconclusive means small, poorly fitted or top-dose-only effect; inactive means no such curve, though single readings can be large or run the other way.
Further: nearly all actives have a fitted effect of over 70% in size.
On the % scale 0 is the no-effect control and ±100 the full control effect.

Protein sequences, listed by entry. Tags and fused reporters are not part of them.
UniProt O95398, whole entry: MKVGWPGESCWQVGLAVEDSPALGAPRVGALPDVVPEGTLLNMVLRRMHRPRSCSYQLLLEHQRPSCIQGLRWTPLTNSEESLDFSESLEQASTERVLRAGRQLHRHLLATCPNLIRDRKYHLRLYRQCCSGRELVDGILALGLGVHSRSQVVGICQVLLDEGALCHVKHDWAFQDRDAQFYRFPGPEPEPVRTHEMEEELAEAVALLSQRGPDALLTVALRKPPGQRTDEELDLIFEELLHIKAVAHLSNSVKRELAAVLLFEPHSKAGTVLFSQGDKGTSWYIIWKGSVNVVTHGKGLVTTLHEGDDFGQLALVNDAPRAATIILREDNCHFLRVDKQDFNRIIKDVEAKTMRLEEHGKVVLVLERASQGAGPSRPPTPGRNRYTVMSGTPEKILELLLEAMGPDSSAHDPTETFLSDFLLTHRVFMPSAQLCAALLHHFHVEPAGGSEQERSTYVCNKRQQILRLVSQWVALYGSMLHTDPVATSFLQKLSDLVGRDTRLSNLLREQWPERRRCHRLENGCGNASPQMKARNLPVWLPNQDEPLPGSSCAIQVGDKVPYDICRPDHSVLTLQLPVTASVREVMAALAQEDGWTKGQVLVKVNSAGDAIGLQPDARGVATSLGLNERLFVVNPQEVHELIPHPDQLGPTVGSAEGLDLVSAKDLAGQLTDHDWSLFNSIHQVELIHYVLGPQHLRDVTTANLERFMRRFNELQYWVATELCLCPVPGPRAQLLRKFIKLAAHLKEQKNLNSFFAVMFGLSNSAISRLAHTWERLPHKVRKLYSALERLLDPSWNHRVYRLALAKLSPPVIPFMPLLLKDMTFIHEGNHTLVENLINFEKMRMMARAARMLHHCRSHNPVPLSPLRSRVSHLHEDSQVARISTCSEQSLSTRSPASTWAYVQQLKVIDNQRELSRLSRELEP

These compounds were tested against Rap guanine nucleotide exchange factor 3 (Homo sapiens) (UniProt O95398) (assay: Validation qHTS for agonist of cAMP-regulated guanine nucleotide exchange factor 3 (EPAC1)). Conditions: EPAC1 Rap1b BODIPY-GDP exchange, fluorescence; stronger effect = higher value; percent of cAMP control response.
Text: Assay Provider (PI): Xiaodong Cheng Ph.D.
The University of Texas Medical Branch, […], TX
In multi-cellular eukaryotic organisms, the effects of cAMP are transduced by two ubiquitously-expressed intracellular cAMP receptors, the classic protein kinase A/cAMP-dependent protein kinase (PKA/cAPK) and the more recently discovered exchange protein directly activated by cAMP/cAMP-regulated guanine nucleotide exchange factor (EPAC/cAMP-GEF). Both PKA and EPAC are ubiquitously expressed in all tissues, and an increase in intracellular cAMP levels will lead to the activation of both PKA and EPAC. Therefore, careful dissections of the individual role and relative contribution of EPAC and PKA within the overall cAMP signaling in various model systems are critical for further elucidating the mechanism of cAMP signaling. To date no EPAC-specific antagonists and agonist, as well as isoform-specific agonists have been reported, and developing EPAC-specific pharmacological probes to determine the physiological functions that EPAC play in the overall cAMP-mediated signaling remains a major challenge within the research field. Furthermore, identified regulators of EPAC may lead to new mechanism-based therapeutic strategies specifically targeting the EPAC / cAMP-signaling components as EPAC has been implicated to play important roles in major human pathological conditions such as diabetes, heart disease, and cancer.
This qHTS will be used to screen the Molecular Libraries Small Molecule Repository (MLSMR) as a concentration-titration series using the NCGC unique quantitative screening (qHTS) platform to find activators for EPAC1. In addition, this assay will also be used as a counterscreen for the EPAC2 qHTS. This fluorescent based assay is developed and validated for EPAC1 that measures exchange using EPAC effector Rap1 complex with BODIPY-GDP, a GDP analog with a tethered fluorophores. Activators are identified by monitoring the change in fluorescence signal as the exchanged free BODIPY-GDP has a reduced fluorescence compared to Rap1-bound BODIPY-GDP. Increase in signal (activation) is the desired outcome for the EPAC1 agonist while no activity in this assay is desired for the EPAC2 agonist counterscreen.
[1] de Rooij, J., Zwartkruis, F. J., Verheijen, M. H., Cool, R. H., Nijman, S. M., Wittinghofer, A., and Bos, J.L. (1998) Nature 396, 474-477.
Briefly, three uL of reagents (100 nM EPAC1, 250 nM RAP1B-BODIPY-GDP, 50 uM GDP) were dispensed into a 1536-well Greiner black solid-bottom medium binding assay plate. Controls and test compounds (23 nL) were transferred to the plate via a Kalypsys pin tool equipped with a 1536-pin array. The plates were centrifuged at 1,000 rpm for 15 seconds followed by 5 minute incubation at room temperature. The assay plates were read at 5 minute intervals for 30 minutes in the ViewLux plate reader using 480nm excitation and 540nm emission filters. The results were normalized to the agonist positive control of 6.5 mM cAMP.
With `CCOP(=O)(CC)Oc1ccc([N+](=O)[O-])cc1` (stereo not given) the max response was inactive: -57.2%.
With `Cc1cccc([N+](=O)[O-])c1[N+](=O)[O-]` the max response was inactive: -18.4%.
`CCN(CCCl)Cc1ccccc1C` was tested, and the max response was inactive: -18.8%.
`C/C1=C2N=C(/C=C3N=C(/C(C)=C4\[N-][C@@](C)([C@@H]5N=C1[C@](C)(CCC(=O)NC[C@@H](C)OP(=O)([O-])O[C@H]1[C@@H](O)[C@@H](n6cnc7cc(C)c(C)cc76)O[C@@H]1CO)[C@H]5CC(N)=O)[C@@](C)(CC(N)=O)[C@@H]4CCC(N)=O)[C@@](C)(CC(N)=O)[C@@H]\3CCC(N)=O)C(C)(C)[C@@H]/2CCC(N)=O.[C-]#N.[Co+3]` was tested, and the max response was inactive: -6.29%.
With `CC(C)OP(=O)(F)OC(C)C` the max response was inactive: 0.025%.
In the case of `O=[N+]([O-])[O-].[NH4+]`, the max response is reported as inactive: 17.3%.
With `CN(C)CCS` the max response was inactive: -15.3%.
For `CC(C)N(CCCl)C(C)C`, the max response was inactive: 4.13%.
In the case of `O=[N+]([O-])OCC(CO[N+](=O)[O-])(CO[N+](=O)[O-])CO[N+](=O)[O-]`, the max response is reported as inactive: -14.4%.
For `O=[N+]([O-])c1cccc([N+](=O)[O-])c1`, the max response was inactive: -20% and inactive: -25.3%.
